The target in experiment [1] is T1, rat TRPV1 (Rattus norvegicus, UniProt O35433). As to the kind of experiment: Ca^2+ imaging (Fura-2) in HEK293 cells stably expressing rat TRPV1. The conditions noted are these: ratiometric fura-2 imaging. It is filed as cell-based.
In experiment [2] the target is T1, rat TRPV1. Description: YO-PRO-1 uptake (imaging / plate-reader) in TRPV1-expressing cells. It is filed as cell-based. The conditions noted are these: 1 μM PDBu or 10 μM PAO.
Experiment [3] relates to voltage gated Na+ channels. As to the kind of experiment: Neuronal Na+ currents after cap-ET and/or QX-314 loading, whole-cell recording. As to conditions: PAO or cap-ET alone (10 μM), then 5 mM QX-314.

Amino acid sequences for entries named in this document (tags omitted).
UniProt O35433, whole entry, looked up: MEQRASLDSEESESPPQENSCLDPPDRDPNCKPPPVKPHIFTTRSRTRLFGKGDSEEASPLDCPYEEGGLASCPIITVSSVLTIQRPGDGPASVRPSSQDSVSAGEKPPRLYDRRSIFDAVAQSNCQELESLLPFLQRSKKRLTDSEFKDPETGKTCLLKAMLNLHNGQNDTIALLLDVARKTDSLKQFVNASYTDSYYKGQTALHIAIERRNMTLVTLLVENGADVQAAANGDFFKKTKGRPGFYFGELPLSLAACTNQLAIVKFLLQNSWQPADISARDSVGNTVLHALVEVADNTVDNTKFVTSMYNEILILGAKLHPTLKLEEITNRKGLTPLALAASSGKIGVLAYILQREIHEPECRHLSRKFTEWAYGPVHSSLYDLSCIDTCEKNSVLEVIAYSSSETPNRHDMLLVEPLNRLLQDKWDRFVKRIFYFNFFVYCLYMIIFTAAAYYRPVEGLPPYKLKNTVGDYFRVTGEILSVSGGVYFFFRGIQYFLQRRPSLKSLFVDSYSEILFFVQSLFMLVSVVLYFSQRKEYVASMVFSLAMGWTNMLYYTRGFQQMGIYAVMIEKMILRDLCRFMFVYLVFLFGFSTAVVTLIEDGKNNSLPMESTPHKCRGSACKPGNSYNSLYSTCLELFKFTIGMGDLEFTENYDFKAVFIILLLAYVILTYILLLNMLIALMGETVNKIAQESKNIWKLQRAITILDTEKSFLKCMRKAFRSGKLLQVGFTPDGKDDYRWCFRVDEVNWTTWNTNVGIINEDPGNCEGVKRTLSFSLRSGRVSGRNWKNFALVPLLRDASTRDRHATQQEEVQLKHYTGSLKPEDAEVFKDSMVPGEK

Turning to “capsaicin O-butyl(trimethylammonium) acetate”, the “intracellular Ca^2+ level on extracellular application” value in experiment [1] was “effectively raised intracellular Ca^2+ levels”.

For `O=[As]c1ccccc1` (stereo not drawn), the “effect on potency of capsaicin or cap-ET for YO-PRO-1 uptake” value in experiment [2] is “increased the potency”. Further, the “Na+ current density after QX-314, agent alone” value in experiment [3] is recorded as “comparable to cells not exposed to QX-314”.

These data come from patent publication US20130102680A1, “METHODS FOR SELECTIVE SILENCING OF SENSORY NEURONS” (CORNELL UNIVERSITY, priority 2011, published 2013).
